{
  "sequences": {"note": "Amino acid sequences for entries named in this document (tags omitted). Residues count along the entry.", "UniProt P09619, 33-1106, species assumed": "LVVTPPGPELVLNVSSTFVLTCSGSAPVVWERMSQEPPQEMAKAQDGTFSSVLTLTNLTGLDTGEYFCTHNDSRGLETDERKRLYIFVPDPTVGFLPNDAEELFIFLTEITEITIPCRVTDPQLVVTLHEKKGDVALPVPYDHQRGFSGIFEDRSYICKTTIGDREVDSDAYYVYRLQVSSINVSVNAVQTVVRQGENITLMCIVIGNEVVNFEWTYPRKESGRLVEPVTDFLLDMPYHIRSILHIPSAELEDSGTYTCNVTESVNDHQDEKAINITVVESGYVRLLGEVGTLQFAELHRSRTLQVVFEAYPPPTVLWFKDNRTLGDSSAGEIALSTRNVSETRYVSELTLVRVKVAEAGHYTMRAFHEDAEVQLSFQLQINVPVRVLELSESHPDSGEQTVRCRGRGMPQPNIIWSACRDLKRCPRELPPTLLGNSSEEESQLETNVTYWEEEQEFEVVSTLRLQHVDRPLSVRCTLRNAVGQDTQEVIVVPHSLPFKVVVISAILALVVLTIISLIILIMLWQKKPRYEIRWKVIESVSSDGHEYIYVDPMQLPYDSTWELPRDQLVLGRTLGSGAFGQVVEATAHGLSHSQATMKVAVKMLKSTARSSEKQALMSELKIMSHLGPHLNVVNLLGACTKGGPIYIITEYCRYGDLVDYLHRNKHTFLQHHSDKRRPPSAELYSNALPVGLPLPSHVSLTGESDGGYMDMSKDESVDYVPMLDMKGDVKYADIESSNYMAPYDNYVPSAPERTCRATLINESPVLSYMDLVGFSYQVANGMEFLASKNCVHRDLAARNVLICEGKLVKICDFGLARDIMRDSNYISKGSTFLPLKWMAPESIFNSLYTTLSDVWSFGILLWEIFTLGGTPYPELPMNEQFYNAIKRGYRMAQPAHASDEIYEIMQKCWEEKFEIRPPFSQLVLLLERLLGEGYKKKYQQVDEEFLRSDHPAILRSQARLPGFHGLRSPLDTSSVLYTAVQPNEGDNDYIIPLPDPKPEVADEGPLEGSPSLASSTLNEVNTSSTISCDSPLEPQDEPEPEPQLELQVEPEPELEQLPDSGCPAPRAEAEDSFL"},
  "source": "patent US11618758B2",
  "about": "“Bicyclic and tricyclic pyrimidine tyrosine kinase inhibitors with antitubulin activity and methods of treating a patient” (Duquesne University of the Holy Spirit, priority 2011, dated 2023)",
  "molecular_target": "platelet derived growth factor receptor-β (PDGFR-β) (Homo sapiens, UniProt P09619)",
  "assay": "Kinase inhibition PDGFRβ",
  "assay_type": "biochemical",
  "data": [
    {"smiles": "CN(C)c1ccc(/C=C2\\C(=O)Nc3ccccc32)cc1", "note": "[DMBI, reference compound]", "values": [
      {"measurement": "IC50", "value": 3.75, "unit": "µM"}
    ]}
  ]
}
